According to PMC11157048 (Frontiers in Pharmacology, 2024):

Columns and labels:
[1] = target: human liver microsomes (HLM); assay: Inhibition of aumolertinib metabolism in human liver microsomes (IC50, Ki); assay type: in vitro ADME; conditions: Lineweaver-Burk secondary plot
[2] = target: rat liver microsomes (RLM); assay: Inhibition of aumolertinib metabolism in rat liver microsomes (screen, IC50, Ki); conditions: Lineweaver-Burk secondary plot

## CCCc1nc2c(C)cc(-c3nc4ccccc4n3C)cc2n1Cc1ccc(-c2ccccc2C(=O)O)cc1 [Telmisartan]
[1]
  αKi: 45.47 µM
[2]
  αKi: 7.29 µM
